Reference: publication PMC11023938 (Nature, 2024)
Values joined by “and” are separate entries in the source; they are usually repeats but may differ in a detail not shown here. Equal entries are not always repeated.

What was measured:
[1] = system: Human umbilical vein endothelial cells (HUVECs); assay: Proliferation assay (CyQUANT), endothelial cells; type: cell-based; conditions: for Proliferation assay, Endothelial cells: each grid row one replicate
Procedure: (§1) Human umbilical vein endothelial cells (HUVECs; Sigma, 200P-05N) cultured in EGM-2 medium (Lonza, CC-4176) up to 3 passages, and primary mouse fibroblasts from C57BL/6 J mouse tails[26] (passages 2–3) were used. MCDB-131 medium (Thermo Fisher Scientific) with 100 mg ml^−1 penicillin/streptomycin and 2 mM glutamine was employed for proliferation assays. C2C12 mouse myoblasts (CellBank Australia) were cultured in a 1:1 ratio of DMEM to F10 medium (2 mM glutamine, 10% FBS, 100 units ml^−1 penicillin/streptomycin). HaCaT keratinocytes (a gift from R. Boyd) were cultured in DMEM without Ca^2+ and Mg^2+ (2 nM glutamine, 10% Chelex-treated FBS, 0.03 nM calcium chloride, 100 units ml^−1 penicillin/streptomycin) for at least 3 passages. Cells obtained from vendors were authenticated and certified negative for Mycoplasma contamination. For proliferation assays, FBS was reduced to 2% or kept at 10% for 24 h. […] Incubation for 48 h (fibroblasts, C2C12) or 72 h (HUVECs, HaCaTs) at 37 °C with 5% CO2 followed. Proliferation was determined using the CyQUANT Cell Proliferation Assay (Invitrogen), presented as fold change over basal proliferation (medium only). PerkinElmer EnVision multi-mode plate reader with EnSpire Manager software was used.

[2] = system: Thbs1 expression in macrophages; assay: Gene expression (RNA-seq, qPCR of Thbs1) in macrophages; type: cell-based, mouse; conditions: CGRP 1 nM, 4 h
Description: After collection, RNA extraction used the RNeasy Plus Micro Kit (Qiagen). For PCR with reverse transcription (RT–PCR) and quantitative PCR (qPCR), reverse transcription used ReverTra Ace (Toyobo). RT–PCR primers were: Human_Calcrl 5′-[…]-3′ and 5′-[…]-3′; Human_Ramp1 5′-[…]-3′ and 5′-[…]-3′; Mouse_Calcrl 5′-[…]-3′ and 5′-[…]-3′; Mouse_Ramp1 5′-[…]-3′ and 5′-[…]-3′. Human or mouse GAPDH primers were from Integrated DNA Technologies (51-01-07-12 and 51-01-07-13, respectively). PCR products were analysed by gel electrophoresis. qPCR was performed using LightCycle96 with software LightCycle96 (Roche Diagnostics) and TaqMan Assay primers from Thermo Fisher Scientific (Thbs1, Mm00449032_g1; Gapdh, Mm99999915_g1). For RNA-seq, RNA quantity and quality assessment, library preparation and sequencing were performed at the Medical Genomics Facility, Monash Health Translation Precinct (MHTP). RNA quantity was assessed using Qubit. RNA samples (20 ng) with RNA integrity number (RIN) value ≥ 7 were used for library preparation. […] Standard Illumina R1 primer was used (main cDNA read), followed by standard i7 primer for index or unique molecular identifier. R2 primer was present but not used as it will read into poly-A tail. […]
Fastq files were processed using the nfCore/RNAseq (v3.2) pipeline using the umi function. Reads were aligned to the Mus musculus GRCm38 reference using STAR aligner. […]

[3] = system: primary mouse fibroblasts; assay: Proliferation assay (CyQUANT), fibroblasts; type: cell-based; conditions: for Proliferation assay, Fibroblasts: each grid row one replicate
Procedure: as §1

[4] = system: bone marrow-derived macrophages; assay: Macrophage cell death; type: cell-based, mouse; conditions: for macrophage death: CGRP 1 or 20 nM
[5] = system: Nav1.8^cre/Rosa26^DTA mice; assay: Full-thickness skin wound model, nociceptor-ablated mice; type: in vivo, mouse; conditions: 1 μg (500 ng CGRP or equimolar eCGRP twice), topical, splinted wounds, D6 post-injury; compared with saline control

calcitonin gene-related peptide [CGRP]
Proliferation assay, Endothelial cells ([1]; 1nM CGRP, medium 2% FBS): 1.24 and 1.11 and 1.09 and 1.02 | Proliferation assay, Endothelial cells ([1]; 1nM CGRP, medium 10% FBS): 1.14 and 1.00 and 1.11 and 0.99 and 1.06 | Proliferation assay, Endothelial cells ([1]; 20nM CGRP, medium 2% FBS): 1.17 and 1.00 and 1.05 and 1.02 | Proliferation assay, Endothelial cells ([1]; 20nM CGRP, medium 10% FBS): 1.25 and 1.06 and 1.30 and 0.94 and 1.16 and 1.02 | proliferation of endothelial cells ([1]; CGRP 1 or 20 nM, 2% or 10% FBS, 72 h): no significant effect | Thbs1 expression in macrophages ([2]; RNA-seq): most upregulated gene | Thbs1 expression in Ramp1−/− macrophages ([2]; qPCR): did not upregulate | Proliferation assay, Fibroblasts ([3]; 1nM CGRP, medium 2% FBS): 1.10 and 0.72 | Proliferation assay, Fibroblasts ([3]; 1nM CGRP, medium 10% FBS): 1.03 and 1.06 and 0.94 and 0.82 and 0.97 and 1.10 | Proliferation assay, Fibroblasts ([3]; 20nM CGRP, medium 2% FBS): 0.94 and 0.76 and 1.06 | Proliferation assay, Fibroblasts ([3]; 20nM CGRP, medium 10% FBS): 0.94 and 1.03 and 0.84 and 0.85 and 1.02 and 1.11 | proliferation of fibroblasts ([3]; CGRP 1 or 20 nM, 2% or 10% FBS, 48 h): no significant effect | effect of CGRP on macrophage death upon Thbs1 knockdown ([4]; CGRP 1 nM, Thbs1 siRNA 10 nM, with or without TNF/IL-1): abolished | macrophage death ([4]; in the presence of IL-1β and TNF): increased | macrophage death ([4]; without inflammatory cytokines or with cytokines that induce an M2-like polarization): did not promote | extent of skin wound closure [5]: enhanced the extent
